Source: article PMC6321117, “Sulfonamide Inhibition Studies of a New β-Carbonic Anhydrase from the Pathogenic Protozoan Entamoeba histolytica” (International Journal of Molecular Sciences, 2018)
Values joined by “and” are separate entries in the source; they are usually repeats but may differ in a detail not shown here. Equal entries are not always repeated.

molecular target: T1, EhiCA (β-carbonic anhydrase) (Entamoeba histolytica, UniProt C4LXK3); assay: not given; details: read-out: KI EhiCA; β class, stopped-flow CO2 hydrase assay, 3 different assays, errors 5–10%
T1 sequence (C4LXK3 1-188): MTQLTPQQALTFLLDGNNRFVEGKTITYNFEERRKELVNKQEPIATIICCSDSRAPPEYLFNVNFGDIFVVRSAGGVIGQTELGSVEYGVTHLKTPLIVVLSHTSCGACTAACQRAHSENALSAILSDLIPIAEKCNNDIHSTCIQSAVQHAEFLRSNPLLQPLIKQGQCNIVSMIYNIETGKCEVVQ

Row | Structure (SMILES) | Ki
1 | Nc1ccc(S(=O)(=O)NCCc2ccc(S(N)(=O)=O)cc2)cc1 [Compound 24] | 0.285 µM

molecular target: T1, EhiCA (β-carbonic anhydrase); assay: biochemical; details: β class, stopped-flow CO2 hydrase assay, 3 different assays, errors 5–10%

Row | Structure (SMILES) | Ki
2 | NS(=O)(=O)c1cc(Cl)cc(Cl)c1O [Compound 10] | 4.66 µM
3 | Nc1ccc(S(N)(=O)=O)cc1Br [Compound 9] | > 10 µM
4 | NS(=O)(=O)c1cc2c(cc1Cl)NCNS2(=O)=O [HCT, hydrochlorothiazide] | 3.4 µM
5 | NS(=O)(=O)c1ccc(S(=O)(=O)Nc2cccc3c(Cl)c[nH]c23)cc1 [IND, indisulam] | 0.822 µM
6 | Cc1ccc(S(N)(=O)=O)cc1 [Compound 4] | 0.833 µM
7 | Nc1ccc(S(=O)(=O)Nc2ccc(S(N)(=O)=O)cc2)cc1 [Compound 22] | 0.331 µM
8 | NS(=O)(=O)c1ccc(CCNS(=O)(=O)c2ccc([N+](=O)[O-])cc2CO)cc1 [Compound 21] | 0.368 µM
9 | NS(=O)(=O)c1ccc(CO)cc1 [Compound 16, 4-hydroxymethyl-benzenesulfonamide] | 0.036 to 0.089 µM and 0.089 µM
